Results on one molecule are retold here after ChEMBL document CHEMBL1154389, “Discovery of pyrimidine benzimidazoles as Src-family selective Lck inhibitors. Part II” (Bioorg Med Chem Lett, 2009).

Protein sequences, listed by entry. Tags and fused reporters are not part of them. Lines headed by an entry give the natural chain unless they say otherwise; changes in a name come on top.
UniProt P06239: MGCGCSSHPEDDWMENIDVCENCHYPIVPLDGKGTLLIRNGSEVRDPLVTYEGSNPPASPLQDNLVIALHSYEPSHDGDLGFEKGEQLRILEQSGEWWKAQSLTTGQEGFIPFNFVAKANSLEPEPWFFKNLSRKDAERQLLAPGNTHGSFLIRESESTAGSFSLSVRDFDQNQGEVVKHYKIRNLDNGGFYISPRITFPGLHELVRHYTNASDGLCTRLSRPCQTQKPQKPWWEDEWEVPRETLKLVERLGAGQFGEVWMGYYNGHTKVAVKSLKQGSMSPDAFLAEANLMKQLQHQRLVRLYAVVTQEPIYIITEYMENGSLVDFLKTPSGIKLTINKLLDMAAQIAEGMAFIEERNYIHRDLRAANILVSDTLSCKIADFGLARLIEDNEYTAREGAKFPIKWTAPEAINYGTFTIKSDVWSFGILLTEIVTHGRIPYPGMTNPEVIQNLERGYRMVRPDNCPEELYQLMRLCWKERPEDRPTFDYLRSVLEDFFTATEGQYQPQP

The target in this assay is Tyrosine-protein kinase Lck (Homo sapiens, UniProt P06239). The experiment in a line: Inhibition of LCK.

By IC50 is commonly meant the concentration that inhibits the measured activity by half. `Cc1ccc(NC(=O)c2ccncc2C(C)(C)C)cc1Nc1nc2ccccc2n1-c1cc(N)ncn1` returned an IC50 of 10 nM.
